ChEMBL document CHEMBL4354864, “Bicyclic α-Iminophosphonates as High Affinity Imidazoline I2 Receptor Ligands for Alzheimer's Disease” (J Med Chem, 2020)

By UniProt entry, the sequences of proteins in these tests, tags left out.
UniProt P08913, whole entry: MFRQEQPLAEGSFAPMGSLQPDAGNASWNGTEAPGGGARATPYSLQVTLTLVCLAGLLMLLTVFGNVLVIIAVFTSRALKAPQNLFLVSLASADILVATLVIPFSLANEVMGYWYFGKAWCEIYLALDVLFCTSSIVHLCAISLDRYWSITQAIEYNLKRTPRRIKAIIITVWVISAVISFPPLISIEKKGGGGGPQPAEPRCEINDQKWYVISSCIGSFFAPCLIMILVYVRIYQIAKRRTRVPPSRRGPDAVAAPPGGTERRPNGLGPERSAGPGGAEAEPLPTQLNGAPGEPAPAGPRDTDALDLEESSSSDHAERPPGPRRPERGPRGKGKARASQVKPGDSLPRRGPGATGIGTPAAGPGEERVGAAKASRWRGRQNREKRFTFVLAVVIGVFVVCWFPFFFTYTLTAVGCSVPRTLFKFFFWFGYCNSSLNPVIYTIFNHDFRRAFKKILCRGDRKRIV

Target: Alpha-2A adrenergic receptor (Homo sapiens, UniProt P08913)
Assay: biochemical

CCOP(=O)(OCC)C1(c2ccccc2)N=CC2C(=O)N(c3ccc(F)c(Cl)c3)C(=O)C21 (racemic)
Ki: 0.053 µM
